# scFv variants of Ab-14 (heavy chain) against a SARS-CoV-2 spike peptide

Target: peptide PDVDLGDISGINAS, taken from heptad repeat 2 (HR2) of SARS-CoV-2 spike.

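Phage display of a naive human antibody library on the peptide gave the parent. Designed CDR sequences, proposed from the first random library and measured here. Several design methods are mixed in this list. The assay is AlphaSeq: two haploid yeast populations carry antibody and antigen on their surface. Binding brings cells together so that they mate, and sequencing counts the barcode pairs among the diploids. The ratio of observed to expected reads was calibrated, replicate by replicate, on BCL2-family standards whose Kd was known from biolayer interferometry. There are six technical replicates.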

Ab-14 is the parent antibody, in scFv form: VH, then the linker GGGGSGGGGSGGGGS, then VL. The light chain is unchanged in all variants.
VH: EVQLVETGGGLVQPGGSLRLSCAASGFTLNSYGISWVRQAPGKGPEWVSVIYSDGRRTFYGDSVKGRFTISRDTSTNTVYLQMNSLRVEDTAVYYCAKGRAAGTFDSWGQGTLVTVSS
VL: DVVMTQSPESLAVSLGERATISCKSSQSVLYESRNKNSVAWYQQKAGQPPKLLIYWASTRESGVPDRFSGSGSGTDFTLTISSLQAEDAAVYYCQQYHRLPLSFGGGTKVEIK

The parent's heavy chain CDRs are GFTLNSYGIS, VIYSDGRRTFYGDSVK, GRAAGTFDS; each variant's own CDRs replace them letter for letter. Kd is apparent (estimated from mating counts) and averaged on the log scale over replicates with a signal. Smaller is tighter. Where no diploid with the target was found in any replicate, the entry reads "nd": below detection, most likely a poor binder, though not proof of it. Entries are sorted by rising average, undetected variants last. As a blank, each scFv also met three strains without target: over all heavy chain designs, 1% of these pairings were detected, typically at 120 nM and seldom below 7.0 nM.

CDR-H1	CDR-H2	CDR-H3	Kd	replicates with signal
GFDLDEYGIS	VIYADGQRTFYADSVK	GEVAGTFDV	150 pM	6/6
GFDLNEYGIS	VIYADGRRTFYADSVK	GNNAGTFNV	210 pM	6/6
GFDLNEYGIS	VIYADGMRTYYADSVK	GNQAGTFDM	260 pM	6/6
GFDLNEYGIS	VIYADGRRTFYDDSVK	GQVAGTFDL	280 pM	6/6
GFSLDEYGIS	VIYADGMRTAYADSVK	GNVAGTFDV	320 pM	6/6
GFDLNEYGIS	VIYADGQRTAYADDVK	GNTAGTFDV	380 pM	6/6
GFDLNEYGIS	VIYADGMRTYYADSVK	GNTAGTFDQ	410 pM	6/6
GFDLDEYGIS	VIYADGMRTAYVDSVK	GENAGTFDM	510 pM	6/6
GFNLDEYGIS	VIYADGRRTFYSDDVK	GEAAGTFDI	520 pM	6/6
GFDLNEYGIS	VIYADGMRSAYADSVK	GENAGTFDI	570 pM	6/6
GFDLDEYGIS	VIYADGKRTFYSDSVK	GSTAGTFDV	630 pM	6/6
GFTLNQYGIS	VIYSDGRRTFYSDSVK	GRLAGTFDT	640 pM	6/6
GFTLDSYGIS	VIYSDGRRTFYADSVK	GRVAGTFDS	790 pM	6/6
GDGLKEYGIS	VIYADGMRESYVDDVK	GQTGGTFNL	810 pM	1/6
GFDLNEYGIS	VIYADGKRTAYADSVK	GEQAGTFDV	910 pM	6/6
GFDLNEYGIS	VIYADGMRTQYIDSVK	GNAAGTFDF	910 pM	6/6
GFELNSYGIS	VIYADGRRTFYGDSVK	GQAAGTFDK	920 pM	6/6
GFDLNEYGIS	VIYADGVRTAYADSVK	GNNAGTFDM	990 pM	6/6
GFSLNSYGIS	VIYSDGRRTFYGDSVK	GSTAGTFDV	1.0 nM	6/6
GFELNSYGIS	VIYSDGRRTFYADSVK	GKVAGTFDS	1.1 nM	6/6
GFDLNEYGIS	VIYADGRRTAYSDSVK	GETGGTFDV	1.1 nM	6/6
GFTLNQYGIS	VIYSDGRRTAYADSVK	GRAAGTFDS	1.5 nM	6/6
GFTLNEYGIS	VIYSDGRRTFYGDSVK	GEAAGTFDT	1.9 nM	6/6
GFTLNQYGIS	VIYSDGVRTFYSDSVK	GRAAGTFDS	2.0 nM	6/6
GFDLNTYGIS	VIYSDGRRTFYVDSVK	GQAAGTFDS	2.4 nM	6/6
GFDLNEYGIS	VIYADGKRTAYVDSVK	GENAGTFDV	2.6 nM	6/6
GFDLNSYGIS	VIYSDGRRTFYKDSVK	GRTAGTFDQ	3.6 nM	4/6
GFTLNSYGIS	VIYADGRRTFYGDDVA	GRAAGTFDS	3.7 nM	6/6
GFTLDSYGIS	VIYSDGRRTFYDDEVK	GRTAGTFDS	4.3 nM	6/6
GFNLNSYGIS	VIYSDGRRTFYVDSVK	GQVAGTFDS	6.0 nM	5/6
GFDLNEYGIS	VIYADGMRTMYADSVK	GNVAGTFDI	6.2 nM	6/6
GGQLDQYGIS	VIYADGVRTSYTNSVK	GVHAGTFMQ	7.7 nM	1/6
GFTLNSYGIS	VIYSDGRRTAYADSVK	GFAAGTFDQ	8.0 nM	6/6
GFNLDLYGIS	VIYSDGERTFYGDSVK	GRAAGTFDS	8.9 nM	6/6
GFSLNSYGIS	VIYSDGRRTFYGDSVK	GQAAGTFDS	12 nM	12/12
GFTVNEYGIS	VIYSDGRRTFYGDSVK	GRAAGTFDS	15 nM	6/6
GFDLNEYGIS	VIYADGKRTAYADSVK	GNNAGTFVQ	33 nM	6/6
GFTLNSYGIS	VIYADGRRTFYGDSVK	GREAGTFKI	45 nM	6/6
GFSLNEYGIS	VIYADGKRQVYANKVK	GNQTGTFDI	48 nM	6/6
GFTLDSYGIS	VIYSDGRRTFYGDSVK	GGAAGAFDS	49 nM	6/6
GFDLEEFGIS	VIYADGTRTMYLPTVK	GVTGGTFDM	80 nM	5/6
GFTLNDYGIS	VIYSDGNRTFYIDSVK	GRAAGTFDW	100 nM	5/6
GFTLNEYGIS	VIYSDGRRTFYDDSVK	GRSAGTFDS	150 nM	4/6
GFDIEEYGVS	VIYADGQRAFYTDSVK	GKGAGIALE	4.7 µM	1/6
GFDLKEYGIS	VIYADGSRTAYSKNFK	GEFDDMVLV	nd	0/6
GETLNSYGIS	VIYSDGRRTFYGDSVK	GRYAGTDDS	nd	0/6
GFTKNSYGIS	VIYADGIRTFYGDSVK	GRAAGTNKS	nd	0/6
GFNLNSYGIS	VIYSDGRRTAYGDSVK	WRAAGTFDS	nd	0/6
GFTLNSYGIS	VIYSDGRLTFYDDSVK	GQLAGTFDS	nd	0/6
GQDLQEYGVS	VIYADGKRTAYADSVK	GKSLGLIFV	nd	0/6
GFGLDEYGIS	VIYADGMRSNYANSVK	GYQAGVIVV	nd	0/6
GFNLNEYGIS	VIYADGRRTFYADSVK	GQTAGTFIM	nd	0/6
GFTLNSYGIS	VIYSDGRRTFYQDSVK	GRAAGTFCS	nd	0/6
GFTLNSYGIS	VIYSDGKRTFYADSVK	GRAAGTFWS	nd	0/6
GFTLNSYGIS	VIYSDGERTFYGDSVK	GTAAGTVDS	nd	0/6
GFDLESYGIS	VIYSDGRRTFYGDAVK	GRAAGTGDS	nd	0/6
GQTLNSYGIS	VIYSDGRRTFYGDSVK	GWAAGTFDS	nd	0/6
DFTLNSYGIS	VIYADGRRTFYGDSVK	IFAAGTFDS	nd	0/6
GFDVDEYGIS	VIYADGHRKSYAASVK	GSVVGVDLV	nd	0/6
GFDLNEYGIS	VIYADGMRTFYADNAK	GNAGIVAEV	nd	0/6
GFDLDEYGIS	VIYADGVRTSYADSVK	GNVAGTFDV	nd	0/6
GFDLNSYGIS	VIYSDGRRTFYGDSVK	GRAAGFFTS	nd	0/6
GFTLNQYGIS	VIYSDGRRTFYSRSVK	GRAAGFFDK	nd	0/6
GFTLNEYGIS	VLYSDGRRTLYGDSVK	GTAAVTFDQ	nd	0/6

The 8 strongest on average among those seen in every replicate, once more:

CDR-H1	CDR-H2	CDR-H3	Kd	replicates with signal
GFDLDEYGIS	VIYADGQRTFYADSVK	GEVAGTFDV	150 pM	6/6
GFDLNEYGIS	VIYADGRRTFYADSVK	GNNAGTFNV	210 pM	6/6
GFDLNEYGIS	VIYADGMRTYYADSVK	GNQAGTFDM	260 pM	6/6
GFDLNEYGIS	VIYADGRRTFYDDSVK	GQVAGTFDL	280 pM	6/6
GFSLDEYGIS	VIYADGMRTAYADSVK	GNVAGTFDV	320 pM	6/6
GFDLNEYGIS	VIYADGQRTAYADDVK	GNTAGTFDV	380 pM	6/6
GFDLNEYGIS	VIYADGMRTYYADSVK	GNTAGTFDQ	410 pM	6/6
GFDLDEYGIS	VIYADGMRTAYVDSVK	GENAGTFDM	510 pM	6/6

Where one sequence has several entries in the source, the replicates are pooled. In the paper, a design with two or fewer of six values counts as a poor binder. The range of this assay differs from that of the first round, and the authors advise against merging the two.

Data: MIT Lincoln Laboratory AlphaSeq set, Li et al. 2023, doi:10.1038/s41467-023-39022-2, as distributed in FLAb.